The values below come from paper PMC5653977, “Spironolactone is an antagonist of NRG1‐ERBB4 signaling and schizophrenia‐relevant endophenotypes in mice” (EMBO Molecular Medicine, 2017).

The subject of this assay is NRG1-ERBB4 signaling. Kind of assay: Nrg1-ERBB4-PIK3R1 split TEV co-culture compound screen of the NIH Clinical Collection.

`CCN(Cc1ccncc1)C(=O)C(CO)c1ccccc1` (stereo not shown) [TROPICAMIDE, reference compound] displayed a Z-SCORE of 0.07.
